Values of other authors in publication PMC12559310, “Tumor-targeted top1 inhibitor delivery with optimized parp inhibition in advanced solid tumors: a phase i trial of gapped scheduling” (Nature Communications, 2025).

System: patients with advanced solid malignancies
Conditions: cited from earlier work
[1] = 44 subjects treated at the MTD (9 subjects)
[2] = 44 subjects treated at the MTD (12 subjects)

## Poly-CD-PEG-Camptothecin [CRLX101]
[1]
  TEAE back pain: 21%
  TEAE cough: 21%
44 subjects treated at the MTD (11 subjects)
  TEAE cystitis: 25%
[2]
  TEAE constipation: 27%
  TEAE nausea: 27%
44 subjects treated at the MTD (20 subjects)
  TEAE fatigue: 46%
Study CRLX-001, all subjects
  TEAE back pain: 21%

Like-named read-outs stand apart in the source and are kept apart here.
